Data taken from PubChem BioAssay AID651711 (Broad Institute, 2012).
Only a part is listed here, and it is no random draw. Calls of active or inactive are those of the source.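 Rule for the calls: active = mean replicate inhibition above about 25%, with every replicate also reaching it (limit read from the data, passing the limit was not always enough); inconclusive = only one of those two criteria met; inactive = neither criterion met.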

By UniProt entry, the sequences of proteins in these tests, tags left out.
UniProt Q15084, whole entry: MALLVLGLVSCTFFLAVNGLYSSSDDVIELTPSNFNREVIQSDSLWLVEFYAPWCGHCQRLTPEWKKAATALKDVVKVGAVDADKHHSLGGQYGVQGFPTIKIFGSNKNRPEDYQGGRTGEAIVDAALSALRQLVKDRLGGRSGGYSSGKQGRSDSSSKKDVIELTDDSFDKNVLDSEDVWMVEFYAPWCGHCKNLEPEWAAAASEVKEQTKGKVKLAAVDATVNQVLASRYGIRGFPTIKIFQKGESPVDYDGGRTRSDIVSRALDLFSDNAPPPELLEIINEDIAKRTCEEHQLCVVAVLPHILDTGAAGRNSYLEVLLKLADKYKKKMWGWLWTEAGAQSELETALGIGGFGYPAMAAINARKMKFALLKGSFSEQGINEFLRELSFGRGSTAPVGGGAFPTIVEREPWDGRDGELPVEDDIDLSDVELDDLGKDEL

Molecular target: Protein disulfide-isomerase A6 (Homo sapiens) (UniProt Q15084)
Assay: ERp5 (PDIA6) reductase activity blockers – biochemical, turbidity, absorbance 650 nm, single point, primary screen (AID 651711)
Conditions: ERp5 insulin aggregation, 90 min, at 9.99 µM, stronger effect = higher value

SMILES	inhibition
CCC(=O)N(c1ccccc1)C1(COC)CCN(CCc2cccs2)CC1	inactive: -4.32%
CCC(=O)N(c1ccccc1)C1(COC)CCN(CCn2nnn(CC)c2=O)CC1	inactive: -2.19%
